Experimental data taken from US8119646B2, “Fungicide hydroximoyl-tetrazole derivatives” (Bayer CropScience AG, priority 2006, dated 2012).

Experiment: logP determination by HPLC on a reversed-phase column (C 18), EEC Directive 79/831 Annex V.A8
Details: HPLC reversed-phase C18, 40° C., 0.1% aqueous formic acid and acetonitrile, gradient 10% to 90% acetonitrile
Procedure: Temperature: 40° C.; Mobile phases: 0.1% aqueous formic acid and acetonitrile; linear gradient from 10% acetonitrile to 90% acetonitrile.

## Cc1nnnn1C(=NOCc1cccc(NC(=O)C2CC2)n1)C1CCCCC1 [Compound 31]
  LogP: 3.33
